The assay addresses HCK enzyme (Homo sapiens (Human), UniProt P08631). As to the kind of experiment: HCK enzyme inhibition assay (FRET, Z'-LYTE). The assay is classed as biochemical. Particulars: read-out: Enzyme Profile: IC50 Values HCK.

These results are taken from US8933228B2, “Respiratory formulations and compounds for use therein” (Respivert, Ltd., priority 2010, dated 2015).

By IC50 is commonly meant the concentration that gives 50% inhibition.

As for `COCC(=O)Nc1cc(Oc2ccc(NC(=O)Nc3cc(C(C)(C)C)nn3-c3ccc(C)cc3)c3ccccc23)ccn1` [Ref 2, N-(4-(4-(3-(3-tert-butyl-1-p-tolyl-1H-pyrazol-5-yl)ureido)naphthalen-1-yloxy)pyridin-2-yl)-2-methoxy acetamide, reference compound], the IC50 came out at 3 nM.
